Source: publication PMC6005519, “Reconstitution and functional studies of hamster P-glycoprotein in giant liposomes” (PLoS ONE, 2018)

Amino acid sequences for entries named in this document (tags omitted).
UniProt P21448, whole entry: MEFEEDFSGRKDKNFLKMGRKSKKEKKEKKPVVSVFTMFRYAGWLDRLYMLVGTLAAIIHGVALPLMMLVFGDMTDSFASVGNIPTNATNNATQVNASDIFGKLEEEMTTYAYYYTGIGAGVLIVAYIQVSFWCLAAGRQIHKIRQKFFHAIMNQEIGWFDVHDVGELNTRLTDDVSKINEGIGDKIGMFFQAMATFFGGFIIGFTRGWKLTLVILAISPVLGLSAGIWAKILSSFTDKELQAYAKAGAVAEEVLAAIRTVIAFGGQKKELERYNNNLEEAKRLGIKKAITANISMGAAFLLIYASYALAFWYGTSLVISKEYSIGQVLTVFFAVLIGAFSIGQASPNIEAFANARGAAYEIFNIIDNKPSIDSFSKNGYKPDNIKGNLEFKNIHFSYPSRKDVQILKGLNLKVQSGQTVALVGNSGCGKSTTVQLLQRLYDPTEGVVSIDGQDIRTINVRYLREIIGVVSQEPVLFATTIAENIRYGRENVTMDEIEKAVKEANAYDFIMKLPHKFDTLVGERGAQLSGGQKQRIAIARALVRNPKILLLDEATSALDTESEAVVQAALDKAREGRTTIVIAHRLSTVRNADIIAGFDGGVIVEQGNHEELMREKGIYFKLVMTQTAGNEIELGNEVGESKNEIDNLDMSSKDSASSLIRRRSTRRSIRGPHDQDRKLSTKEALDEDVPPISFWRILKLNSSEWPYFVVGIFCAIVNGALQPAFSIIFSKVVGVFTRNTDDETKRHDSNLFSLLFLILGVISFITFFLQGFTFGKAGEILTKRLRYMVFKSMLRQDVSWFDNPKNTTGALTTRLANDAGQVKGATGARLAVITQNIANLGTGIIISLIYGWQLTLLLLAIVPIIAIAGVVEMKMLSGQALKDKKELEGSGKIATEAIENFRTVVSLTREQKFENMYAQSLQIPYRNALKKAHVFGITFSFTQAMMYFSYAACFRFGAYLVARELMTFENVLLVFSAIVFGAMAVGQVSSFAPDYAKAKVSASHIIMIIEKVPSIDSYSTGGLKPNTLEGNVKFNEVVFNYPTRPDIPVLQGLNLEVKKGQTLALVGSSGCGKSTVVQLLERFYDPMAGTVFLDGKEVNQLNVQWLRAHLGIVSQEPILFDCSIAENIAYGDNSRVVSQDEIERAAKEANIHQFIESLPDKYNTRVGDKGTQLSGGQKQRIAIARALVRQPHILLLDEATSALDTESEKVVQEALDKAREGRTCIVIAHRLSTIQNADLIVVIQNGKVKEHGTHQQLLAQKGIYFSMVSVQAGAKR

Molecular target: P-glycoprotein (Pgp, ABCB1) (Cricetulus griseus, UniProt P21448)
Assay: biochemical

COc1cc2c(c(OC)c1OC)-c1ccc(OC)c(=O)cc1[C@@H](NC(C)=O)CC2 [colchicine]
IC50: 94.6 ± 47.6 µM
